# Data published in patent publication US20050266098A1, “Composition for treatment of a hydrofluoric acid burn” (priority 2004, published 2005).
# Columns and labels:
# [1] = Solubility of active compounds in various solvent systems
# [2] = 20° C., background statement; cited from earlier work
substance,measurement,setting,value
calcium gluconate,Solubility,"[1]; 10% urea in water, 20 °C",0.4 g/100 mL
same,Solubility,"[1]; 10% urea in water, 37 °C",1.0 g/100 mL
same,Solubility,"[1]; 10% urea in water, 60 °C",1.4 g/100 mL
same,Solubility,"[1]; 10% urea in water, 90 °C",2.2 g/100 mL
same,Solubility,"[1]; 45% DMSO in water, 20 °C",0.2 g/100 mL
same,Solubility,"[1]; 45% DMSO in water, 37 °C",0.4 g/100 mL
same,Solubility,"[1]; 45% DMSO in water, 60 °C",1.0 g/100 mL
same,Solubility,"[1]; 45% DMSO in water, 90 °C",1.3 g/100 mL
same,Solubility,"[1]; 100% DMSO, 20 °C",0.1 g/100 mL
same,Solubility,"[1]; 100% DMSO, 37 °C",0.3 g/100 mL
same,Solubility,"[1]; 100% DMSO, 60 °C",0.6 g/100 mL
same,Solubility,"[1]; 100% DMSO, 90 °C",1.1 g/100 mL
same,Solubility,"[1]; Water, 20 °C",0.4 g/100 mL
same,Solubility,"[1]; Water, 37 °C",1.0 g/100 mL
same,Solubility,"[1]; Water, 60 °C",2.4 g/100 mL
same,Solubility,"[1]; Water, 90 °C",5.6 g/100 mL
same,Solubility in water,[2],0.4 g/100 mL
